Target: T1, EZH2 (Homo sapiens, UniProt Q15910)
T1 construct: GRITS37108
Experiment: EZH2 methyltransferase SPA assay (3H-SAM, Hela nucleosomes)
Format: biochemical
Conditions: 10 nM EZH2, 7 μg/ml Hela nucleosomes, 2-parameter IC50 fit; single-point-in-time values

Protein sequences, listed by entry. Tags and fused reporters are not part of them.
UniProt Q15910, whole entry: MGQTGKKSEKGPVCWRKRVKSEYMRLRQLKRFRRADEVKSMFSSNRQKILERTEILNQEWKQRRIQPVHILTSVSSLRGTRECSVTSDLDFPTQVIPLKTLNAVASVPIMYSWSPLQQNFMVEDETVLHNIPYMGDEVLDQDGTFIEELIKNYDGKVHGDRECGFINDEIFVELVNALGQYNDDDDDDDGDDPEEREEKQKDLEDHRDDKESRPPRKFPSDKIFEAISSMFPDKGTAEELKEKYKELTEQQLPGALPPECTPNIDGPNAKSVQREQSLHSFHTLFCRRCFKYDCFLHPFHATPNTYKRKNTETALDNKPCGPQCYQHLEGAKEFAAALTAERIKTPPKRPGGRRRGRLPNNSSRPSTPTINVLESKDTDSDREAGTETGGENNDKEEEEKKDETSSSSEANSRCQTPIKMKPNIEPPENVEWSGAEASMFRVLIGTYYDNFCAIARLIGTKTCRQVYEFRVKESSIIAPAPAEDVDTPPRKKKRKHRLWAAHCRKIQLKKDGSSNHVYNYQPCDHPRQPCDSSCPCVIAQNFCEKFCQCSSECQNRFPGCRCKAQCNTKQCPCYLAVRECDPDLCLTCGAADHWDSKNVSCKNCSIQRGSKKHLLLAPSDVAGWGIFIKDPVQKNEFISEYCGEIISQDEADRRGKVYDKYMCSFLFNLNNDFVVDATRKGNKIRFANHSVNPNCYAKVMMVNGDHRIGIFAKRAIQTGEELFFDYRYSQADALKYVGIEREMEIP

Substance “N-[(4,6-Dimethyl-2-oxo-1,2-dihydro-3-pyridinyl)methyl]-1-(1-methylethyl)-6-[6-(4-methyl-1-piperazinyl)-3-pyridinyl]-1H-pyrazolo[3,4-b]pyridine-4-carboxamide [Ex 82]” has an IC50 of 108 nM.
